The text below walks through data of US20240261274A1, “TREATMENT OF MYC-DRIVEN CANCERS WITH GSPT1 DEGRADERS” (MONTE ROSA THERAPEUTICS, INC., priority 2021, published 2024).

Amino acid sequences for entries named in this document (tags omitted).
UniProt P15170, whole entry: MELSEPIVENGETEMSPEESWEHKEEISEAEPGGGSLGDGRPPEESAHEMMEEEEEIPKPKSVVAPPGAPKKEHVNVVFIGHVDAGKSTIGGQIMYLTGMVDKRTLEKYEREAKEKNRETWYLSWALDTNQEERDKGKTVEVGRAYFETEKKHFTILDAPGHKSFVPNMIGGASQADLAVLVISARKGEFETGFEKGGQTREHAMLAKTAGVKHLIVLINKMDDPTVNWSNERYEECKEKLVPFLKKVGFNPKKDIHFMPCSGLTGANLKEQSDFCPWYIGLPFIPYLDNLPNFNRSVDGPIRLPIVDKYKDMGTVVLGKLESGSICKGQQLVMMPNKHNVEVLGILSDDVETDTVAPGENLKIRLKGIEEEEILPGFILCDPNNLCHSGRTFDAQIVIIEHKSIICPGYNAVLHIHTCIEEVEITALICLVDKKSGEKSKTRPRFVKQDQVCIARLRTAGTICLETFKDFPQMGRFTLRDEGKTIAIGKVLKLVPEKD
UniProt Q96SW2, whole entry: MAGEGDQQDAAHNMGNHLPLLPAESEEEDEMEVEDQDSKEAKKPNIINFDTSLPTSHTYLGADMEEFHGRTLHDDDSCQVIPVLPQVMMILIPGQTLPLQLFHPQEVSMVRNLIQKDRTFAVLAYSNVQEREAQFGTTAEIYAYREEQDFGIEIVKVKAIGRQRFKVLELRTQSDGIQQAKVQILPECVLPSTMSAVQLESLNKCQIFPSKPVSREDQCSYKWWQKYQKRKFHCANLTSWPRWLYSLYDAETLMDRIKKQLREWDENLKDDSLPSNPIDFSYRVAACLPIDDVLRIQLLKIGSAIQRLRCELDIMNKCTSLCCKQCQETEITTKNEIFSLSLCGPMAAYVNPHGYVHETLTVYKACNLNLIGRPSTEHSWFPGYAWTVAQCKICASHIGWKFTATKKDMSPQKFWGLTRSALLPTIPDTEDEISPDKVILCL
UniProt Q16531, whole entry partner: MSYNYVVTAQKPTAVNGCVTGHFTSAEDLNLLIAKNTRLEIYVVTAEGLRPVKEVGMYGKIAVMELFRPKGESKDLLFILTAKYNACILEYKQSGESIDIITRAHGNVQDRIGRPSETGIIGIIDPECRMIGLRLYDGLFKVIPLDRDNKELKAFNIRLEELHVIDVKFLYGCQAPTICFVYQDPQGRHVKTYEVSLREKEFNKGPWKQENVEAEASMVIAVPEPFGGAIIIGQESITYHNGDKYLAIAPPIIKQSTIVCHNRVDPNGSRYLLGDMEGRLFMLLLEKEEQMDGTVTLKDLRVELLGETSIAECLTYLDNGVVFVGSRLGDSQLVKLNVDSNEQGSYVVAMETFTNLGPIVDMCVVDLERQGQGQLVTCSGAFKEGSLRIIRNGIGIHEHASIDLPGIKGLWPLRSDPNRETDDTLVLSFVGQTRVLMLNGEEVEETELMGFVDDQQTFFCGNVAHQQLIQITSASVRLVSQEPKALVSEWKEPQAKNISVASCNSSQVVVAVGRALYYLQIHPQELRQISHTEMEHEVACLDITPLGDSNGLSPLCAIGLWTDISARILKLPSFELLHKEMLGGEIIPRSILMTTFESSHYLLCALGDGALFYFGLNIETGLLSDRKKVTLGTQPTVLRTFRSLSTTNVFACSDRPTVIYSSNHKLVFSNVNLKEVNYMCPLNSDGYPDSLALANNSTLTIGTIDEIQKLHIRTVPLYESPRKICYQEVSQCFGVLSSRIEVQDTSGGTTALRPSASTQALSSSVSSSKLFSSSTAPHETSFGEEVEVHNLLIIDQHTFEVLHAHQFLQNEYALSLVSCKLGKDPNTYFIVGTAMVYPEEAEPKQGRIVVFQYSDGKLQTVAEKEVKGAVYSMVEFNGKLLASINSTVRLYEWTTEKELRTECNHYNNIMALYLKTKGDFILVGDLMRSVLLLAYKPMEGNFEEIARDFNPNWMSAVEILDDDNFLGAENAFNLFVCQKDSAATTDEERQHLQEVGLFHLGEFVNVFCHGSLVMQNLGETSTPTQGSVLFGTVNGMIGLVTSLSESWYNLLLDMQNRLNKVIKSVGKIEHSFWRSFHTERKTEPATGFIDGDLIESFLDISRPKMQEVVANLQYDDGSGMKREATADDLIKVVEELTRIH

For this assay, the target named is GSPT1 (Homo sapiens, UniProt P15170+Q96SW2). The experiment in a line: GSPT1 degradation immunofluorescence assay in CAL-51 cells. Particulars: read-out: Activity for GSPT1 degradation, Code (DC50), 6 hours, Table 4.
Usually DC50 stands for the concentration giving 50% degradation. In the case of `CC(C)(C)c1ccc(NC(=O)NCc2ccc3c(c2)C(=O)N(C2CCC(=O)NC2=O)C3)cn1` (stereo not drawn), the DC50 is less than 100 nM.
For `CN1CCC(Oc2cc(Cl)cc(NC(=O)NCc3ccc4c(c3)C(=O)N(C3CCC(=O)NC3=O)C4)c2)C1` (stereo not drawn), the half-maximal degradation concentration (DC50) was greater than 300 nM.
Turning to `O=C1CCC(N2Cc3ccc(CNC(=O)Nc4cc(F)cc(OC(F)(F)F)c4)cc3C2=O)C(=O)N1` (stereo not drawn), the DC50 was greater than 300 nM.
In the case of `O=C1CCC(N2Cc3ccc(CNC(=O)Nc4cc[nH]n4)cc3C2=O)C(=O)N1` (stereo not drawn) it was greater than 300 nM; in that of `O=C1CCC(N2Cc3ccc(CNC(=O)Nc4cc(OC(F)(F)F)ccn4)cc3C2=O)C(=O)N1` (stereo not drawn), greater than 300 nM.
Under `O=C1CCC(N2Cc3ccc(CNC(=O)Nc4cc[nH]c4)cc3C2=O)C(=O)N1` (stereo not drawn) stands greater than 300 nM.
Under `CN1CCC(COc2cc(Cl)cc(NC(=O)NCc3ccc4c(c3)C(=O)N(C3CCC(=O)NC3=O)C4)c2)C1` (stereo not drawn) stands greater than 300 nM; under `O=C1CCC(N2Cc3ccc(CNC(=O)Nc4cn[nH]c4)cc3C2=O)C(=O)N1` (stereo not drawn), greater than 300 nM.
Regarding `O=C1CCC(N2Cc3ccc(CNC(=O)Nc4cccc(-c5ncc[nH]5)c4)cc3C2=O)C(=O)N1` (stereo not drawn), the DC50 is greater than 300 nM.
